These are literature values, as cited in paper PMC3913854 (Investigational New Drugs, 2013).

Data set [1] concerns refractory HER2+ disease. As to conditions: heavily pretreated patients, N = 110; cited from earlier work.
Data set [2] has as its system HER2+ patients. As to conditions: N = 991, interim analysis, cited from earlier work.

For “trastuzumab emtansine: investigational HER2-targeted agent”, in data set [1], the clinical benefit rate is 48% and the overall response rate is 35%. Also, in data set [2] (P < .0001), the progression-free survival is recorded as 9.6 months. Besides, the “serious AEs versus lapatinib and capecitabine” value in data set [2] is recorded as “fewer serious AEs”.
